scFv variants of Ab-14 (light chain) against a SARS-CoV-2 spike peptide

The measurements come from Engelhart et al. 2022 (doi:10.1038/s41597-022-01779-4) through the FLAb antibody collection.

All variants were tested on one target, the spike HR2 peptide PDVDLGDISGINAS (SARS-CoV-2).

Parent: Ab-14, a human scFv built as VH, a 15-residue (Gly4Ser)3 linker, VL. Only the CDRs of the light chain vary.
VH: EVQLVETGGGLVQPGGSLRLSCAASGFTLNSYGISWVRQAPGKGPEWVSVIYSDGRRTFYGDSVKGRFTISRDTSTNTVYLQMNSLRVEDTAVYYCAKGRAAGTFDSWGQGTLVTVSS
VL: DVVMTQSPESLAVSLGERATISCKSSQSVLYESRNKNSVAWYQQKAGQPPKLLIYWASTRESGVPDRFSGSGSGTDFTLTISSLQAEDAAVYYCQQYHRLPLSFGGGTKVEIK

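Variants in AAYL50 differ from the parent at up to three CDR positions; double and triple changes were sampled at random. Affinity was read by AlphaSeq, a pooled yeast mating assay with surface-displayed partners. After mating in shaken culture at 30 °C for 16 h, diploids were selected and their barcode pairs sequenced. Each replicate has its own calibration line, from reference interactions of the BCL2 family. The assay was run in three technical replicates.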

Each variant is given by its three light chain CDRs, as the data file delimits them; those of the parent are KSSQSVLYESRNKNSVA, WASTRES, QQYHRLPLS. Affinities are written as log10 Kd with Kd in nM; a lower number is a better binder. Replicates are averaged; those with no signal do not enter the mean. A pair that was not seen in that replicate is written "n.d."; this usually means weak binding, but a binder can also be missed. Empty control strains, which show no peptide, gave a signal in 18% of pairings with library AAYL50; the median was 4.19 and 95% of these signals were weaker than 2.99. No background was subtracted. Also given: how often the same scFv was detected with the empty control strains, with their mean in brackets.

CDR-L1,CDR-L2,CDR-L3,"log10 Kd, replicates",mean log10 Kd (nM),empty controls
KSFQSVAEESRNKNSVA,WASTRES,QQYHRLPLS,1.13 / 1.29 / 1.46,1.29,4/9 (3.82)
KSSQCVLYESRNYNSVA,WPSTRES,QQYHRLPLS,3.93 / n.d. / n.d.,3.93,1/9 (5.21)
TSSQSVLYERRNKNSVA,WYSTRES,QQYHRLPLS,n.d. / 3.28 / 4.49,3.88,2/9 (4.49)
KSSQSVLYESRNKNSYA,WASTRES,QQYITLPLS,2.28 / 4.53 / n.d.,3.41,2/9 (3.14)
KSSQSVLYESRNKNSVA,YASTRES,QGYHRLPLD,n.d. / n.d. / n.d.,n.d.,0/9
KSSQSVLYESRNKNSVA,WASTRRW,QQYHRLPTS,n.d. / n.d. / 4.70,4.70,0/9
KESQDVLYESPNKNSVA,WASTRES,QQYHRLPLS,2.54 / 2.65 / 2.94,2.71,2/9 (4.53)
KMSQSVLYESNNKNSVA,WASTRES,QQYHRLPIS,0.05 / 0.38 / 0.23,0.22,1/9 (3.71)
YSSQSVLYESRNKNSVA,WASTRES,YQYHRLPIS,n.d. / n.d. / 4.07,4.07,3/9 (4.22)
KSSQSVLYEFRNKNSVA,EASTRDS,QQYHRLPLS,n.d. / 5.50 / n.d.,5.50,2/9 (4.97)
KSSQSVLYEFRNKNSVC,WASTRES,WQYHRLPLS,n.d. / 4.44 / n.d.,4.44,1/9 (4.37)
KSSQSVLTESRNNNSVA,WASTRES,QQYFRLPLS,1.08 / 1.24 / 1.28,1.20,5/9 (4.85)
CSSQNVLYESRNKNSVA,WASTRIS,QQYHRLPLS,2.83 / 1.70 / 2.76,2.43,0/9
KSSQWVLYESRNKNSVA,WKSTRES,QQHHRLPLS,n.d. / n.d. / 4.82,4.82,1/9 (3.61)
SSSQSVLYESRNMNSVA,KASTRES,QQYHRLPLS,0.02 / 0.50 / 0.19,0.23,1/9 (5.29)
KNSQSVLYESRNKNSVA,WASTRES,QQYQRLILS,0.56 / 0.68 / 0.58,0.61,1/9 (4.19)
KSSQSALYESRNKNSVA,WASLRES,QQNHRLPLS,n.d. / n.d. / n.d.,n.d.,0/9
KSSQSVLYEHRNKNSVA,WASTRYS,QQYFRLPLS,1.23 / 1.17 / 1.59,1.33,1/9 (3.51)
KSSQSVNYESRNKNSVA,WTSTRES,QQYHNLPLS,3.21 / 2.99 / 4.05,3.42,2/9 (4.44)
KSSQSVLYESRNKNSVA,WGSTRLS,QQYHRLFLS,2.78 / 2.48 / 2.76,2.67,1/9 (4.67)
KSSQSVLYESRNKNSVA,WRSWRES,QQYHRLPLS,n.d. / 2.76 / n.d.,2.76,0/9
KSPQSVLYHSRNKNSVA,WASTRES,QQYHRTPLS,4.31 / 2.95 / 3.51,3.59,1/9 (5.63)
KSDQSVLYESRNKNSVA,WASPRES,DQYHRLPLS,n.d. / n.d. / 5.49,5.49,1/9 (2.89)
SSSQSVLYESRNKNSVA,WASTRES,QQMHSLPLS,n.d. / n.d. / n.d.,n.d.,0/9
KSSQSVLYESRNKNSVA,WAFTRES,QQYHRLPLS,n.d. / n.d. / n.d.,n.d.,0/9
KSSGSVLYESRNKNSVA,WAITRES,QQYHRMPLS,2.08 / 2.20 / 2.48,2.25,4/9 (3.45)
KSSQSVLYESRNGNSVA,WASTRYS,QQYLRLPLS,0.68 / 1.14 / 0.99,0.93,2/9 (3.90)
KSSQSYLYESRNKNSVA,WASWRES,QQYTRLPLS,3.38 / 2.83 / 3.54,3.25,3/9 (3.61)
LSSQSVLYESRNKNSVA,WASRRET,QQYHRLPLS,n.d. / n.d. / n.d.,n.d.,1/9 (4.66)
KSSQSILYESRNKNSVA,WASTRES,LLYHRLPLS,n.d. / 3.23 / n.d.,3.23,1/9 (3.58)
KSSQSVLYESRKKNSVA,WASTRES,QQYHEDPLS,n.d. / n.d. / n.d.,n.d.,0/9
KSGKSVLYESRNKNSVI,WASTRES,QQYHRLPLS,n.d. / n.d. / n.d.,n.d.,3/9 (4.64)
KASQHVLYESRNKMSVA,WASTRES,QQYHRLPLS,1.81 / 1.75 / 2.02,1.86,5/9 (4.70)
KSSQHVLYMSRNKNSVA,WASTRES,QMYHRLPLS,1.13 / 1.27 / 1.32,1.24,0/9